Laboratory results from article PMC8138772 (The Journal of Biological Chemistry, 2021).

Conditions: mouse

Compound: CC(C)C[C@@H]1NC(=O)[C@H](CC(=O)O)NC(=O)CNC(=O)[C@H](CCCNC(=N)N)NC(=O)[C@H](CC(C)C)NC(=O)[C@H](CC(N)=O)NC(=O)[C@@H]2C[C@@H](O)CN2C(=O)[C@H](C(C)C)NC(=O)[C@@H](NC(=O)[C@H](CC(N)=O)NC(=O)CCCC[C@@H]2SC[C@@H]3NC(=O)N[C@@H]32)CSc2c(F)c(F)c(c(F)c2F)-c2c(F)c(F)c(c(F)c2F)SC[C@@H](C(=O)N[C@H](CCCNC(=N)N)C(=O)N[C@H](C(=O)N[C@@H](CCCCN)C(=O)N[C@H](C)C(N)=O)[C@@H](C)O)NC(=O)[C@H](C(C)C)NC(=O)[C@H](CCCCN)NC(=O)[C@H](CCC(N)=O)NC(=O)[C@H](C)NC(=O)[C@H](CC(C)C)NC(=O)[C@H](C(C)C)NC(=O)[C@H](CCC(N)=O)NC1=O [C2C18 Ph RDTKAD DFBP]
- t1/2 of intact peptide in serum: 6.611 h
